These are literature values, as cited in patent US20180148480A1, “SYNTHETIC ENHANCEMENT OF THE T-CELL ARM[…] AN ANTI-CANCER THERAPY” (THE JOHNS HOPKINS UNIVERSITY, priority 2015, published 2018).

Amino acid sequences for entries named in this document (tags omitted). Residues count along the entry.
UniProt P07288, 25-261: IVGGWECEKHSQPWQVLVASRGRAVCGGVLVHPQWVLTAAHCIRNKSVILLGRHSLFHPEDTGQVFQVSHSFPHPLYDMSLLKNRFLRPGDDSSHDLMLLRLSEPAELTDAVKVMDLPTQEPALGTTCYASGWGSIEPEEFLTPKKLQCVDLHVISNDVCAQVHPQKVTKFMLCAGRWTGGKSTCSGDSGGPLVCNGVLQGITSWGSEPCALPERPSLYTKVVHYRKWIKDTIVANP

The series deals with PSA (Homo sapiens, UniProt P07288). Conditions: boronic acid-based PSA inhibitor.

For the substance Ahx-FSQn(boro)Bpg, the Ki – broadly, the equilibrium dissociation constant of an inhibitor or competing ligand from its target – was 72 nM.
